Assay results published in paper PMC9378504 (Journal of medicinal chemistry, 2022).

Key:
Format in all cases: cell-based, Human
GSPT1 [1] = assay: Western blotting of GSPT1 protein level in KMS11 cells; conditions: 2.5 μM, 72 h
KMS11 cells = assay: Cell growth inhibition assay in KMS11 cells; conditions: 2.5 μM, 8 days
H929 cells = assay: Cell growth inhibition assay in H929 cells; conditions: 2.5 μM, 8 days
GSPT1 [2] = assay: Western blotting of GSPT1 protein level in H929 cells; conditions: 2.5 μM, 72 h

In the case of `O=C1COc2cc(C(=O)N(Cc3ccc(C(=O)Nc4ccncn4)cc3)C3CC3)ccc2N1` [UNC6934, reference compound], the GSPT1 degradation (GSPT1 [1]) is reported as “did not display any degradation effect”, the Cell growth inhibition (KMS11 cells) is reported as “showed little effect on cell growth inhibition” and the Cell growth inhibition (H929 cells) is reported as “showed little effect on cell growth inhibition”. For the same compound, the GSPT1 degradation (GSPT1 [2]) was “did not display any degradation effect”.
